Laboratory results from paper PMC8966664 (Frontiers in Pharmacology, 2022).

What was measured:
Assay type in all cases: in vivo, Sprague Dawley rats
[1] = test system: sinusoidal endothelial cells; experiment: Immunofluorescence of RECA-1 in liver sections; conditions: rats; RTS alone
Text: (§1) Rats were randomly divided into the following twelve groups: 1 and 2) Single- or Multiple-dose of distilled water groups (Vehicle), 3 and 4) Single-dose of RTS groups (RTS), 5 and 6) Single- or Multiple-dose of EX groups (SD-EX and MD-EX), 7 and 8) Single- or Multiple-dose of GA groups (SD-GA and MD-GA), 9) Single-dose of EX + RTS group (RTS-SD-EX), 10) Multiple-dose of EX + RTS group (RTS-MD-EX), 11) Single-dose of GA + RTS group (RTS-SD-GA), and 12) Multiple-dose of GA + RTS group (RTS-MD-GA). EX and GA were dissolved in distilled water at 37°C for oral administration with the dosage of EX and GA as 500 mg/kg and 50 mg/kg. RTS was dissolved in distilled water at room temperature to make the final concentration of 40 mg/kg. RTS was given following the last dose of distilled water/GA/EX. Detailed dosage regimens are described in Supplementary Figure S2. All rats were sacrificed at 48 h after the last dosing. Serum and liver samples were collected and stored at −80°C until use. The dose of RTS chosen for this study was based on our previous findings in that 40 mg/kg of RTS caused significant acute liver injury with moderate to severe SECs damage in male SD rats ([Chen et al., 2021]).
The largest lobe of the rat liver was sliced, cold-embedded in Tissue-Tek OCT compound, and processed for immunohistochemistry according to the Abcam IHC frozen sections staining protocol. […]

RTS-induced liver damage = experiment: Histological examination (H&E) and scoring of liver damage, modified DeLeve's system; design: key to Sinusoidal hemorrhage / Coagulative necrosis / Apoptotic bodies / Subendothelial fibrosis / Sinusoid fibrosis: 0-absent; 1-mild; 2-moderate; 3-severe; conditions: rats
Text: as §1
The largest lobe of the liver was sliced, fixed in 10% buffered-neutral formalin for 24 h, and embedded in wax. Sections of 5 µm in thickness were subjected to hematoxylin and eosin staining before being examined. Liver injury (necrosis, endothelial cell damage, and hemorrhage) was evaluated with a LEICA DM5000B Microscope (Leica, Heidelberg, Germany).
Protective effects of EX and GA on RTS-induced hepatotoxicity were also evaluated by histopathological examination. […] The damage of sinusoidal endothelial cells was further measured by the immunofluorescence of RECA-1. […] The degrees of hemorrhage, sinusoidal dilation, and necrosis were assessed and scored (Table 2) according to a modified DeLeve’s system ([Deleve et al., 1999]) as summarized in Supplementary Table S3.

RTS-induced liver injury = experiment: Serum ALT, hepatic MDA and GSH in RTS-induced liver injury; conditions: rats
Text: as §1
The serum alanine transaminase (ALT) level was measured by a kit obtained from Sigma-Aldrich Chemical Co. (St. Louis, MO, United States). The total bilirubin level was measured by the QuantiChromTM Bilirubin Assay kit according to the manufacturer’s instructions (BioAssay Systems, Hayward, CA, United States). Hepatic malondialdehyde (MDA) level was measured using a kit obtained from Nanjing Jiancheng Bioengineering Institute (Nanjing, China). Total GSH content in the liver was measured following a standard spectrophotometric method using Ellaman’s reagent.

[2] = Toxicokinetic study: plasma kinetics of RTS; conditions: rats; RTS 30 mg/kg oral alone (vehicle pre-dose)
Experimental: For the toxicokinetic study, jugular vein cannulation was performed on rats on the day before drug administration. The right jugular vein was cannulated with a polyethylene tube (0.4 mm i.d. × 0.8 mm o.d., SIMS Portex, United Kingdom) for blood sampling. The rats were maintained in individual metabolic cages and fasted overnight with free access to water. Rats were orally dosed with GA (50 mg/kg) or distilled water (<5 ml/kg) 2 hours prior to RTS (30 mg/kg). After RTS dosing, blood samples (about 0.2 ml/sample) were collected at 5, 10, 20, 40, 60, 120, 240, 360, 480, 720, and 1440 min and placed in heparinized tubes. Saline (0.2 ml) containing 25 units of heparin/mL was injected after each blood sampling for compensation of blood withdrawal. The blood samples were then centrifuged at 3,000 x g for 30 min, and plasma samples were harvested and stored at −20°C until use.
The pyrrole-protein adducts were measured according to our previously developed method ([Lin et al., 2011]; [Ruan et al., 2014]). Briefly, 50 mg liver or 100 µL serum/plasma was mixed with acetone and centrifuged at 900 x g for 10 min. The precipitated protein was treated with silver nitrate (20 mg/ml) in ethanol containing 5% trifluoroacetic acid to release pyrrole moiety from the pyrrole-protein adducts. After centrifugation, an aliquot of the supernatant was incubated with 4-dimethylaminobenzaldehyde (20 mg/ml) at 56°C for 10 min. The mixture was filtered and subjected to LC-MS/MS analysis. 7,9-diGS-DHP was used as a standard with a concentration ranging from 0.2 to 2000 nM and underwent the same preparation process to construct a calibration curve. To measure the concentration of RTS and 7,9-diGS-DHP, liver, serum, plasma samples, or the incubation mixture were mixed with five volumes of acetone (for liver samples) or three volumes of acetonitrile (for serum and plasma samples) to precipitate the proteins. After centrifuging at 20,000 x g for 30 min, the supernatants were collected and analyzed by LC-MS/MS according to our previously developed methods ([Ma et al., 2019]; [He et al., 2021a]; [Ma et al., 2021]).
The LC-MS/MS analysis was performed on an Agilent 6460 Triple Quadrupole LC/MS System using a Waters Acquity BEH C18 column (2.1 × 100 mm, […]). For the detection of pyrrole-protein adducts, the mobile phase of water containing 0.1% formic acid (A) and acetonitrile containing 0.1% formic acid (B) was used with a gradient elution as follows: 0–5 min, 35–95% B; 5.5–6 min, 95–35% B. The flow rate was 0.3 ml/min. The injection volume was 3 μL. […] The injection volume was 5 µL. The mass spectrometer was operated in multiple reactions monitoring for data acquisition. The multiple reaction monitoring (MRM) transitions, fragmentor, and collision energy for 7,9-diGS- RTS, RTS, and pyrrole-protein adducts are listed in Supplementary Table S1.
Data are expressed as mean ± SD. The Student’s t test was used for the comparison between two groups. The one-way ANOVA followed with a post hoc Bonferroni’s multiple comparison test was used for the comparison among multiple groups. Toxicokinetic parameters were calculated by noncompartmental methods using WinNonlin version 4.0 (Pharsight, Mountain View, CA, United States). The enzyme kinetic parameters were estimated from the best fit line using least-squares linear regression of the inverse substrate concentration versus the inverse velocity (Lineweaver-Burk plots), and the mean values were used to calculate the Km and Vmax. The inhibition constant (K i ) value of GA was determined by the secondary Lineweaver-Burk plots. The statistical significance was set as ^* p < 0.05, ^** p < 0.01 or ^*** p < 0.001.

[3] = substance alone (EX/GA single and multiple administrations; RTS single dose), 48 h

Q: Which “sinusoids around central veins (RECA-1 immunofluorescence)” value [1] does the source give for retrorsine [RTS, reference compound] here?
A: markedly damaged

Q: And the Apoptotic bodies (RTS-induced liver damage; EX, GA or RTS alone)?
A: 1

Q: And the “Central vein endothelial damage” value (RTS-induced liver damage; EX, GA or RTS alone)?
A: 2-3

Q: What about the Coagulative necrosis (RTS-induced liver damage; EX, GA or RTS alone) of the same substance?
A: 2

Q: And the “Overall (sum of the scores from all individual parameters)” value (RTS-induced liver damage; EX, GA or RTS alone)?
A: 11-14

Q: What about the Sinusoid fibrosis (RTS-induced liver damage; EX, GA or RTS alone) of the same substance?
A: 0

Q: What about the Sinusoidal dilation (RTS-induced liver damage; EX, GA or RTS alone) of the same substance?
A: 2-3

Q: What about the Sinusoidal hemorrhage (RTS-induced liver damage; EX, GA or RTS alone) of the same substance?
A: 2

Q: What about the Subendothelial fibrosis (RTS-induced liver damage; EX, GA or RTS alone) of the same substance?
A: 0

Q: And the Subendothelial hemorrhage (RTS-induced liver damage; EX, GA or RTS alone)?
A: 2-3

Q: What about the “histopathological examination of liver” value (RTS-induced liver damage; substance alone) of the same substance?
A: severe hepatotoxicity

Q: What about the “hepatic GSH level increase” value (RTS-induced liver injury; 48 h after RTS dosing, vs vehicle) of the same substance?
A: 2.82 fold

Q: What about the “hepatic MDA level compared with vehicle” value (RTS-induced liver injury; [3]) of the same substance?
A: elevated significantly

Q: What about the “serum ALT level compared with vehicle” value (RTS-induced liver injury; [3]) of the same substance?
A: elevated significantly

Q: And the “AUC0→1440 of RTS in plasma” value [2]?
A: 234.49 ± 34.07 µg·min/mL

Q: What about the “Cl/F of RTS” value [2] of the same substance?
A: 28.18 ± 0.92 mL/min

Q: And the “Cmax of RTS in plasma” value [2]?
A: 3188.07 ± 144.65 ng/mL

Q: What about the “T1/2 of RTS” value [2] of the same substance?
A: 1.6707 ± 0.3275 h

Q: And the “Tmax of RTS in plasma” value [2]?
A: 0.3333 ± 0 h

Q: What about the “VZ/F of RTS” value [2] of the same substance?
A: 4058.24 ± 703.60 mL
